Experimental data published in PMC8279415, “Targeting Acute Myelogenous Leukemia Using Potent Human Dihydroorotate Dehydrogenase Inhibitors Based on the 2-Hydroxypyrazolo[1,5-a]pyridine Scaffold: SAR of the Biphenyl Moiety” (Journal of Medicinal Chemistry, 2021).

Test system: THP1 cells
Assay: Annexin V apoptosis assay in THP1
Conditions: read-out: apoptosis EC50 THP1 (CL 95%), 3 days

Compound: Cc1c(-c2ccc(-c3ccccc3F)cc2)nc2ccc(F)cc2c1C(=O)O [Brequinar, reference compound]
- EC50: 264 nM
